# According to PubChem BioAssay AID602141 (Sanford-Burnham Center for Chemical Genomics, 2011):
# The list shows a part of the results, in another mix than the full data. Calls of active or inactive are those of the source.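 How the source made its calls: active means corrected activity change at or below -50% at 5 µM; inactive means the rest.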
# Assay: cytotoxicity in KKLEB CF airway cells, primary screen, cytotoxicity control for CF NF-kB inhibitor project, cell-based, uHTS, fluorescence assay plates (AID 602141)
# Conditions: KKLEB CF airway cells viability, ATPlite luminescence, overnight; at 5 µM; stronger effect = lower value; cells stimulated with P. aeruginosa culture filtrate
row,SMILES,activity change (cytotoxicity)
1,O=c1[nH]c2ccccc2n1C1CCN(C(c2ccccc2)c2nnnn2C2CCCCC2)CC1 (stereo not drawn),inactive: 0.5%
2,COc1cc(C(=O)NCC2(N(C)C)CCCCC2)ccc1OC(F)F,inactive: -8.5%
3,CCOC(=O)N1CCC(Nc2cccc(C)c2)CC1,inactive: -17.5%
4,O=c1[nH]c2ccccc2n1C1CCN(C(c2cccc3ccccc23)c2nnnn2C2CCCC2)CC1 (stereo not drawn),inactive: -0.5%
5,CC(C)(C)n1nnnc1C(c1ccccc1)N1CCC(n2c(=O)[nH]c3ccccc32)CC1 (stereo not drawn),inactive: 2.2%
6,O=C1CCN(Cc2ccccc2)CC1,inactive: 11.3%
7,CCOc1ccc(C)cc1CN(CCCl)CCCl,inactive: -3%
8,O=C(NCC1(N2CCCCC2)CCCCC1)c1ccc(F)cc1,inactive: -2.7%
9,O=P1(N(CCCl)CCCl)SCCCS1,inactive: 8.8%
10,CCCCn1nnnc1C(c1cc2ccccc2o1)N1CCC(n2c(=O)[nH]c3ccccc32)CC1 (stereo not drawn),inactive: -16.4%
11,CCCCOc1ccc(C(=O)NCC2(N3CCOCC3)CCCCC2)cc1,inactive: -0.3%
12,COc1ccc(NC2CCN(CCc3ccccc3)CC2)c(OC)c1,inactive: 5.8%
13,CCOC(=O)N1CCC(Nc2ccc(F)cc2)CC1,inactive: 1.3%
14,O=c1[nH]c2ccccc2n1C1CCN(C(c2ccccc2OC(F)(F)F)c2nnnn2C2CCCCC2)CC1 (stereo not drawn),inactive: -16.3%
15,O=C(NCC1(N2CCCCC2)CCCCC1)c1ccc(Cl)nc1,inactive: 6.5%
16,Cc1cc(C)cc(N(C(=O)c2ccccc2)C2CCN(C(=O)OC(C)(C)C)CC2)c1,inactive: -7.3%
17,O=C(NCC1(N2CCOCC2)CCCCC1)c1cc2ccccc2o1,inactive: -7.9%
18,O=C(OC1CN2CCC1CC2)C1c2ccccc2Oc2ccccc21 (stereo not drawn),inactive: 2.3%
19,O=c1[nH]c2ccccc2n1C1CCN(C(c2cc3ccccc3o2)c2nnnn2C2CCCCC2)CC1 (stereo not drawn),inactive: -11.3%
20,N#CC1(Nc2ccccc2)CCN(Cc2ccccc2)CC1,inactive: -10.9%
21,O=C(NCC1(N2CCCCC2)CCCCC1)c1ccc(Cl)s1,inactive: 2.8%
22,COc1ccc(Cl)cc1C(=O)NCC1(N2CCOCC2)CCCCC1,inactive: 11.5%
23,CCOC(=O)N1CCC(Nc2ccc(OC)cc2)CC1,inactive: 5.1%
24,CCCCn1nnnc1C(c1ccc(OC)cc1)N1CCC(n2c(=O)[nH]c3ccccc32)CC1 (stereo not drawn),inactive: -6.1%
25,COc1ccc(C(=O)NCC2(N3CCCCC3)CCCCC2)cc1,inactive: -5.2%
26,CCC(c1nnnn1C1CCCC1)N1CCC(n2c(=O)[nH]c3ccccc32)CC1 (stereo not drawn),inactive: -5.9%
27,COc1ccc(C(=O)NCC2(N3CCCCC3)CCCCC2)c(OC)c1OC,inactive: -14.6%

row,SMILES,activity change (cytotoxicity)
1,CC(C)(C)OC(=O)N1CCC(N(C(=O)c2ccccc2)c2ccc(F)cc2)CC1,inactive: -3.4%
2,O=C(NCC1(N2CCCCC2)CCCCC1)c1ccc(=O)[nH]c1,inactive: 18.8%
3,CCCCn1nnnc1C(c1cccs1)N1CCC(n2c(=O)[nH]c3ccccc32)CC1 (stereo not drawn),inactive: -16%
4,CCCCn1nnnc1C(CC)N1CCC(n2c(=O)[nH]c3ccccc32)CC1 (stereo not drawn),inactive: 5%
5,O=C(NCC1(N2CCCCC2)CCCCC1)c1cccs1,inactive: 1.7%
6,CSc1ccccc1C(=O)NCC1(N2CCCCC2)CCCCC1,inactive: -4.2%
7,Cc1cccc(NC2(C#N)CCN(Cc3ccccc3)CC2)c1,inactive: 12%
8,O=C(NCC1(N2CCCCC2)CCCCC1)c1cncc(Br)c1,inactive: 10%
9,CN1CCC(Nc2cccc(F)c2)CC1,inactive: -0.6%
10,COc1ccc(C(c2nnnn2C2CCCC2)N2CCC(n3c(=O)[nH]c4ccccc43)CC2)cc1 (stereo not drawn),inactive: -3.6%
11,Cc1ccc(C(=O)NCC2(N(C)C)CCCCC2)o1,inactive: 0.1%
12,CCCOc1ccc(C(=O)NCC2(N(C)C)CCCCC2)cc1OC,inactive: -3.9%
13,CC(C)c1ccc(NC2CCN(C(=O)OC(C)(C)C)CC2)cc1,inactive: 3.5%
14,CCCCn1nnnc1C(c1ccccc1OC(F)(F)F)N1CCC(n2c(=O)[nH]c3ccccc32)CC1 (stereo not drawn),inactive: -1.3%
15,COc1ccc(CN(CCCl)CCCl)cc1Cl,inactive: 6.1%
16,CN(C)c1cccc(C(=O)NCC2(N3CCCCC3)CCCCC2)c1,inactive: -3.2%
17,COc1cc(OC)c(C(=O)NCC2(N(C)C)CCCCC2)cc1OC,inactive: -0.8%
18,CCC(c1nnnn1C(C)(C)C)N1CCC(n2c(=O)[nH]c3ccccc32)CC1 (stereo not drawn),inactive: -8.8%
19,O=C(NCC1(N2CCOCC2)CCCCC1)c1cc(F)c(F)cc1Cl,inactive: -11.7%
20,CCCCn1nnnc1C(c1ccnc2ccccc12)N1CCC(n2c(=O)[nH]c3ccccc32)CC1 (stereo not drawn),inactive: 7.2%
21,O=C(NCC1(N2CCCCC2)CCCCC1)c1cccc(C(F)(F)F)c1,inactive: -2%
22,COc1cc(C(=O)NCC2(N3CCCCC3)CCCCC2)ccc1OC(F)F,inactive: 2.8%
23,O=C(NCC1(N2CCOCC2)CCCCC1)c1cc(=O)[nH]c2ccccc12,inactive: -5.6%
24,CCCCn1nnnc1C(c1cccc2ccccc12)N1CCC(n2c(=O)[nH]c3ccccc32)CC1 (stereo not drawn),inactive: 18.4%
25,CN1CCN(CCOC(=O)C(O)(c2ccccc2)c2ccccc2)CC1,inactive: 8.6%
26,COc1ccc(NC2CCN(C(=O)OC(C)(C)C)CC2)cc1,inactive: -4.4%
